Data published in US12616204B2, “Use of cationic porphyrins as selective herbicide” (UNIVERSITE DE LIMOGES, priority 2021, dated 2026).

Experiment: Photostability/photodegradation test in water (Soret band, UV-visible spectrometry)
Details: weedkiller solution in water

In the case of “zinc tetra(N-methylpyridyl)porphyrin tetrachloride [Zn-TMPyP]”, the “half-life in water when exposed to light” value was “two”.
